One compound from patent US20230302150A1, “ANTIBODY-TLR AGONIST CONJUGATES, METHODS AND USES THEREOF” (Ambrx, Inc., priority 2020, published 2023) can be followed below.

Protein sequences, listed by entry. Tags and fused reporters are not part of them. Residues count along the entry.
UniProt Q9NYK1, 27-1049 limits assumed: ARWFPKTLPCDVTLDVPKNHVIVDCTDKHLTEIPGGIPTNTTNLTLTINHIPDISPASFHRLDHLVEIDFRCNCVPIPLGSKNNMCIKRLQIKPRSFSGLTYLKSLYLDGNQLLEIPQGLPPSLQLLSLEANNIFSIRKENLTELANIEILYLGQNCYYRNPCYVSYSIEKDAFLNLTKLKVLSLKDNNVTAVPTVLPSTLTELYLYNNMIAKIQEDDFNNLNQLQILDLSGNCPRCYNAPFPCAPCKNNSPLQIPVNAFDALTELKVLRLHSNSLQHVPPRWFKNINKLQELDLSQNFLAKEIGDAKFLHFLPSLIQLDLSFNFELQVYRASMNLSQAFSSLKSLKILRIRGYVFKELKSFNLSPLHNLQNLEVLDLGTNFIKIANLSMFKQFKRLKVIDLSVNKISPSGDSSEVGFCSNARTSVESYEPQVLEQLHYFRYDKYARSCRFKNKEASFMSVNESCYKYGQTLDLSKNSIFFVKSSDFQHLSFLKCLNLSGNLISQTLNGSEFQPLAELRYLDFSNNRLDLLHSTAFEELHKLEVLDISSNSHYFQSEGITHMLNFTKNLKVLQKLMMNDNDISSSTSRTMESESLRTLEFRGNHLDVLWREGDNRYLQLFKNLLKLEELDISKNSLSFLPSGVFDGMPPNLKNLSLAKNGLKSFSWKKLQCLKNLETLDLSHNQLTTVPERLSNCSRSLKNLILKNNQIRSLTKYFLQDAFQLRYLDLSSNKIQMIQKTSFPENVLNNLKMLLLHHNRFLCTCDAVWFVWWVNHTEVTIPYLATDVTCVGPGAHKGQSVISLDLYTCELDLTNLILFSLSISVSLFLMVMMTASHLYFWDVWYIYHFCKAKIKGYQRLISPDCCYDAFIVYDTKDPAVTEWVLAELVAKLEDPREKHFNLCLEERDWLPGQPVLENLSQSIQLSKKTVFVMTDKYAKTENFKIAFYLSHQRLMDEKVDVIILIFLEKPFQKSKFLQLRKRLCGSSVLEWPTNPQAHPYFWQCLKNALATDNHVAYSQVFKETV

This test concerns the target hTLR7 (Homo sapiens, UniProt Q9NYK1). Kind of test: HEK-Blue hTLR7 reporter assay (NF-kB-induced SEAP, Quanti-Blue). Type of test: cell-based. The following applies: Table 19, TLR7, drug-linkers with PEG shielding. For orientation: Reporter assays use an easily measured gene product as a stand-in for the process of interest.

As a reminder, the EC50 is the midpoint of the concentration-response curve.

In the case of `CCCCOc1nc(N)c2[nH]c(=O)n(Cc3ccc(CN4CCC(CCNC(=O)[C@H](CCCCNC(=O)CON)NC(=O)CCOCCOCCOCCOC)CC4)cc3)c2n1`, the concentration giving a half-maximal response (EC50) is 303 nM.
